Cyclic peptide permeability, from CycPeptMPDB

Collected by the curators of CycPeptMPDB (Li et al. 2023) from Townsend et al. 2020, doi:10.26434/chemrxiv.13335941.v1.

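Lipid, pH, incubation time, direction and concentration are not recorded in the data file. Other peptides of the study may be missing here. Peptides that the database sets to -10, its floor, are left out.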

PAMPA is the parallel artificial membrane permeability assay, which has no cells and reads passive diffusion.
Permeability is in 10^-6 cm/s, converted from the database's log10 values; higher is more permeable.

CCCN1CC(=O)N[C@H](CC(C)C)C(=O)N[C@@H](CC(C)C)C(=O)N2CCC[C@@H]2C(=O)N(Cc2ccccc2)CC(=O)N[C@@H](Cc2ccccc2)C(=O)N2CCC[C@H]2C1=O has PAMPA 3 × 10^-6 cm/s.
CC(C)C[C@H]1NC(=O)[C@H](C)NC(=O)[C@H](Cc2ccccc2)NC(=O)[C@H](CC(C)C)N(C)C(=O)[C@H]2CCCN2C(=O)C[C@H](Cc2ccccc2)NC1=O has PAMPA 1.9 × 10^-6 cm/s.
CC(C)C[C@@H]1C(=O)N(C)[C@H](CC(C)C)C(=O)N2CCC[C@@H]2C(=O)N(C)[C@H](CC(C)C)C(=O)N[C@@H](Cc2ccccc2)C(=O)N2CCC[C@@H]2C(=O)N(C)[C@H](C)C(=O)N1C has PAMPA 1.9 × 10^-6 cm/s.
CC(C)C[C@@H]1C(=O)N2CCC[C@H]2C(=O)N(C)[C@H](CC(C)C)C(=O)N[C@@H](Cc2ccccc2)C(=O)N2CCC[C@@H]2C(=O)N(C)[C@@H](C)C(=O)N(C)[C@H](CC(C)C)C(=O)N1C has PAMPA 4.1 × 10^-6 cm/s.
CC(C)C[C@@H]1NC(=O)[C@@H]2CCCN2C(=O)[C@@H](CC(C)C)N(C)C(=O)[C@H](CC(C)C)N(C)C(=O)[C@@H](C)NC(=O)[C@H]2CCCN2C(=O)[C@H](Cc2ccccc2)NC1=O has PAMPA 1.3 × 10^-6 cm/s.
CCCN1CC(=O)N[C@@H](CC(C)C)C(=O)N(C)[C@@H](CC(C)C)C(=O)N2CCC[C@@H]2C(=O)N(Cc2ccccc2)CC(=O)N[C@@H](Cc2ccccc2)C(=O)N2CCC[C@@H]2C1=O has PAMPA 7.2 × 10^-6 cm/s.
CC(C)C[C@@H]1NC(=O)[C@@H]2CCCN2C(=O)[C@@H](CC(C)C)N(C)C(=O)[C@H](CC(C)C)N(C)C(=O)[C@@H](C)N(C)C(=O)[C@H](Cc2ccccc2)NC1=O has PAMPA 15 × 10^-6 cm/s.
CC(C)C[C@@H]1C(=O)N[C@H](CC(C)C)C(=O)N2CCC[C@H]2C(=O)N(Cc2ccccc2)CC(=O)N[C@@H](Cc2ccccc2)C(=O)N(C)[C@H](C)C(=O)N1C has PAMPA 11 × 10^-6 cm/s.
CC(C)C[C@@H]1NC(=O)[C@H]2CCCN2C(=O)[C@H](CC(C)C)N(C)C(=O)[C@H](CC(C)C)N(C)C(=O)[C@@H](C)N(C)C(=O)[C@H](Cc2ccccc2)NC1=O has PAMPA 3.4 × 10^-6 cm/s.
CC(C)C[C@H]1NC(=O)[C@H](C)NC(=O)[C@@H]2CCCN2C(=O)[C@H](Cc2ccccc2)NC(=O)[C@H](CC(C)C)N(C)C(=O)[C@@H]2CCCN2C(=O)C[C@H](Cc2ccccc2)NC1=O has PAMPA 0.68 × 10^-6 cm/s.
CC(C)C[C@@H]1C(=O)N[C@@H](Cc2ccccc2)C(=O)N2CCC[C@@H]2C(=O)N[C@@H](C)C(=O)N(Cc2ccccc2)CC(=O)N[C@@H](Cc2ccccc2)CC(=O)N2CCC[C@@H]2C(=O)N1C has PAMPA 1.4 × 10^-6 cm/s.
CC(C)C[C@H]1NC(=O)[C@@H]2CCCN2C(=O)CN(Cc2ccccc2)C(=O)[C@@H](CC(C)C)NC(=O)[C@@H](C)N(C)C(=O)[C@H]2CCCN2C(=O)[C@H](Cc2ccccc2)NC1=O has PAMPA 0.35 × 10^-6 cm/s.
CC(C)C[C@@H]1NC(=O)[C@H]2CCCN2C(=O)CN(Cc2ccccc2)C(=O)[C@H](CC(C)C)NC(=O)[C@H](C)N(C)C(=O)[C@H]2CCCN2C(=O)[C@H](Cc2ccccc2)NC1=O has PAMPA 0.39 × 10^-6 cm/s.
CC(C)C[C@@H]1C(=O)N(C)[C@@H](CC(C)C)C(=O)N2CCC[C@@H]2C(=O)N(Cc2ccccc2)CC(=O)N[C@@H](Cc2ccccc2)C(=O)N[C@H](C)C(=O)N1C has PAMPA 5.5 × 10^-6 cm/s.
CC(C)C[C@H]1NC(=O)[C@H]2CCCN2C(=O)CN(Cc2ccccc2)C(=O)[C@@H](CC(C)C)NC(=O)C[C@H](Cc2ccccc2)NC(=O)[C@@H]2CCCN2C(=O)[C@H](Cc2ccccc2)NC1=O has PAMPA 1.4 × 10^-6 cm/s.
CC(C)C[C@@H]1NC(=O)C[C@H](Cc2ccccc2)NC(=O)[C@H]2CCCN2C(=O)[C@H](Cc2ccccc2)NC(=O)CN(Cc2ccccc2)C(=O)[C@@H]2CCCN2C(=O)[C@@H](CC(C)C)N(C)C1=O has PAMPA 2 × 10^-6 cm/s.
CC(C)C[C@@H]1NC(=O)[C@@H]2CCCN2C(=O)C[C@H](Cc2ccccc2)NC(=O)[C@@H](CC(C)C)N(C)C(=O)[C@@H](C)NC(=O)[C@H](Cc2ccccc2)NC1=O has PAMPA 1.2 × 10^-6 cm/s.
CC(C)C[C@H]1NC(=O)[C@@H]2CCCN2C(=O)[C@H](CC(C)C)N(C)C(=O)[C@@H](CC(C)C)NC(=O)[C@@H](C)N(C)C(=O)[C@H](Cc2ccccc2)NC1=O has PAMPA 8.9 × 10^-6 cm/s.
CC(C)C[C@@H]1NC(=O)[C@H](CC(C)C)N(C)C(=O)[C@@H](C)N(C)C(=O)[C@@H]2CCCN2C(=O)[C@H](Cc2ccccc2)NC(=O)[C@H](CC(C)C)N(C)C(=O)[C@@H]2CCCN2C1=O has PAMPA 4.2 × 10^-6 cm/s.
CC(C)C[C@H]1NC(=O)[C@H](C)N(C)C(=O)[C@H](Cc2ccccc2)NC(=O)[C@H](CC(C)C)N(C)C(=O)[C@H]2CCCN2C(=O)CN(Cc2ccccc2)C1=O has PAMPA 7.8 × 10^-6 cm/s.
CCCN1CC(=O)N(C)[C@@H](CC(C)C)C(=O)N[C@@H](CC(C)C)C(=O)N2CCC[C@H]2C(=O)N(C)[C@H](CC(C)C)C(=O)N[C@@H](Cc2ccccc2)C(=O)N2CCC[C@@H]2C1=O has PAMPA 6.8 × 10^-6 cm/s.

2 of these entries, quoted again:

{"smiles": "CC(C)C[C@@H]1C(=O)N2CCC[C@H]2C(=O)N(C)[C@H](CC(C)C)C(=O)N[C@@H](Cc2ccccc2)C(=O)N2CCC[C@@H]2C(=O)N(C)[C@@H](C)C(=O)N(C)[C@H](CC(C)C)C(=O)N1C", "PAMPA (10^-6 cm/s)": "4.1"}
{"smiles": "CC(C)C[C@@H]1NC(=O)[C@@H]2CCCN2C(=O)[C@@H](CC(C)C)N(C)C(=O)[C@H](CC(C)C)N(C)C(=O)[C@@H](C)N(C)C(=O)[C@H](Cc2ccccc2)NC1=O", "PAMPA (10^-6 cm/s)": "15"}